Where two headings read alike, the source gives them in different places.
Tested on: murine fibrosarcomas (RIF-1 cells)
Details: vinblastine 1 mg/kg i.p.

CC[C@]1(O)C[C@@H]2CN(CCc3c([nH]c4ccccc34)[C@@](C(=O)OC)(c3cc4c(cc3OC)N(C)[C@H]3[C@@](O)(C(=O)OC)[C@H](OC(C)=O)[C@]5(CC)C=CCN6CC[C@]43[C@@H]65)C2)C1 [Vinblastine]
Delay (3× (days 0, 3, 6)): 1.78 days
Delay (4× (days 0, 3, 6, 8)): 1.67 days
